System: maize haploids
Experiment: Colchicine doubling treatment of BC3 haploids, pollen and kernel phenotypes in the field
Type: in vivo
Conditions: colchicine-treated haploids
Description: To test whether the SCD-QTL1 could be used in combination with a chemical doubling treatment, such as colchicine, and have an additive effect on haploid male fertility, we took the 17 elite BC2 lines from Example 6 through one additional backcross generation to produce a BC3. Genotyping was used to identify heterozygotes at SCD-QTL1, and those materials were then crossed by a haploid inducer, embryos isolated from the immature ears, and haploids regenerated for transplant into the field. Immediately after isolation, embryos from each of the 17 BC3 populations were split into 2 treatment groups. […] Thus, there were 4 treatment groups to compare within each elite BC3 population: (1) SCD-QTL1 with colchicine (haploid male fertility plus colchicine), (2) unfavorable QTL allele with colchicine (positive control), (3) SCD-QTL1 without colchicine (haploid male fertility alone), (4) and unfavorable QTL allele without colchicine (negative control). All lines were planted across three replications of the trial over the course of approximately 6 months, and the data was pooled for analysis.
In this trial, sample sizes were large enough (minimum of 50 haploids per treatment group) to enable statistical analysis to confirm whether observed differences in kernel set between groups with and without the favorable allele of SCD-QTL1 were statistically significant using a Student's T-Test (Table 8). […] In double-haploid production, a key metric for success is the number of individual haploids that produce ears with greater than 5 kernels per ear with a colchicine treatment.

SMILES: COc1cc2c(c(OC)c1OC)-c1ccc(OC)c(=O)cc1[C@@H](NC(C)=O)CC2 [Colchicine, colchicine]
- Percent of Plants with Ears >5 kernels (BC3 recurrent parent Line 8, Unfavorable Allele): 32.0%
- Percent of Plants with Ears >5 kernels (BC3 recurrent parent Line 9, SCD Allele): 36.0%
- Percent of Plants with Ears >5 kernels (BC3 recurrent parent Line 16, SCD Allele): 34.1%

Reference: patent publication US20250234824A1, “MARKERS ASSOCIATED WITH S[…]” (Syngenta Crop Protection AG, priority 2022, published 2025)
